Data as given in ChEMBL document CHEMBL2046362, “Synthesis and evaluation of novel potent HCV NS5A inhibitors” (Bioorg Med Chem Lett, 2012).

Sequences of proteins named here, by UniProt entry; tags and fusion partners are left off.
UniProt P05177, whole entry: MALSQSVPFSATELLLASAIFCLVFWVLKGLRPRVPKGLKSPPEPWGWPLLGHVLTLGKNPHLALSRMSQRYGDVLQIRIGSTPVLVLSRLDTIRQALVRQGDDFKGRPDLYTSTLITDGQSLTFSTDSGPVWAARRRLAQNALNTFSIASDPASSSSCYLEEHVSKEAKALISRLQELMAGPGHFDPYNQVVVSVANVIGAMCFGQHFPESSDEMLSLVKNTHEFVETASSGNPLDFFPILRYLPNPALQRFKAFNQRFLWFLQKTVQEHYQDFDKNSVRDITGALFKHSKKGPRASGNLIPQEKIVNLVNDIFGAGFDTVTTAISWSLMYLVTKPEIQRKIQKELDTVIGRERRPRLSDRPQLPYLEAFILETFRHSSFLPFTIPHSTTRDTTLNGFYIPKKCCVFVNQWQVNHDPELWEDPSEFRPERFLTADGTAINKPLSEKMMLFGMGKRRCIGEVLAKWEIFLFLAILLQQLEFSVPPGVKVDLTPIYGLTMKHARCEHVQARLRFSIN

Target: CYP1A2 (Homo sapiens, UniProt P05177)
Assay: in vitro

inhibition at 3 µM: > 93%
Structure (SMILES): O=c1cc(-c2ccccc2)oc2c1ccc1ccccc12 [ALPHA-NAPHTHOFLAVONE]
